# Measured affinities in a library of Ab-14 light chain variants

Target peptide (SARS-CoV-2 spike, HR2 region): PDVDLGDISGINAS

The variants keep the heavy chain, the linker and the frameworks of Ab-14 (scFv order VH, the linker GGGGSGGGGSGGGGS, VL).
VH: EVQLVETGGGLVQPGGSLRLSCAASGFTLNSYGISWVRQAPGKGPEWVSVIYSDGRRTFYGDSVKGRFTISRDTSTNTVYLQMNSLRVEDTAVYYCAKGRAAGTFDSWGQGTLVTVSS
VL: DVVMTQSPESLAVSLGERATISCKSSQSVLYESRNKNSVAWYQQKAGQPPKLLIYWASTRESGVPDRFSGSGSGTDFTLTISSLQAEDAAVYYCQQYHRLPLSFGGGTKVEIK

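Designed CDR sequences, proposed from the first random library and measured here. Group labels follow the data file (En: ensemble of fine-tuned language models; GP: Gaussian process model; HC: hill climbing; Gen: genetic algorithm; Gibbs: Gibbs sampling; a sequence that several methods proposed may carry one label only). The assay is AlphaSeq: two haploid yeast populations carry antibody and antigen on their surface. The frequency of each diploid, read from paired DNA barcodes, reflects how well the two displayed proteins bind. The ratio of observed to expected reads was calibrated, replicate by replicate, on BCL2-family standards whose Kd was known from biolayer interferometry. There are six technical replicates.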

Variants are written as CDR1, CDR2 and CDR3 of the light chain (limits as in the source). Parent: KSSQSVLYESRNKNSVA, WASTRES, QQYHRLPLS.
Variants here have more than six changes.
Each Kd is an estimate from the mating assay, the geometric mean of the replicates in which the pair was seen; lower is stronger.
An entry "not detected" has no value in the source: the pair was not observed among the diploids in any replicate. This suggests poor binding but is not conclusive.

| CDR-L1 | CDR-L2 | CDR-L3 | group | Kd (apparent) | replicates with signal | empty controls |
|---|---|---|---|---|---|---|
| KVSEFMRGLMGRKDSIA | DNETRNN | QQYDRLPLS | En_Gen | 39 nM | 5 of 6 | 0 of 18 |
| MMSQVTGLGQRMRNNVA | QTSMRET | QQYDRLPLI | En_Gen | 4.4 nM | 6 of 6 | 1 of 18 |
| NMRGSEGEIAQHGYSVA | GVDLRAA | QQYARLPLH | En_Gibbs | 16 nM | 6 of 6 | 2 of 18 |
| KLWEDFYHGQVETSAIA | DGEHLNM | QQYSHLPLS | En_Gibbs | 2.4 nM | 6 of 6 | 1 of 18 |
| KLMQGDEYESRNKNSVA | NASKREE | QQYHRLPLS | GP_Gibbs | 410 pM | 6 of 6 | 0 of 18 |
| RIMYEYDKSVDKYNAVA | QAHIRAQ | QFYNRLPLS | En_Gibbs | 49 nM | 6 of 6 | 1 of 18 |
| SLAYTQHFGQKGGKAVA | EVAMRCQ | QQYFRLPLG | En_Gibbs | 10 nM | 1 of 6 | 0 of 18 |
| MMSQVTGQGQRHRNNVA | QTSTREP | QQYDHLPLI | En_Gen | 44 nM | 6 of 6 | 3 of 18 |
| MVNTNLEHQAQRDNNIA | EADMVAA | QDYDRLPLI | En_Gibbs | 200 nM | 6 of 6 | 1 of 18 |
| HMSALTLMGTRNRNSVA | QMTTREN | QQYDRLPLA | En_Gen | 13 nM | 6 of 6 | 0 of 18 |
| TLSQSMDMTSRNVNSVA | DLTTRGN | QQYHRLPLS | En_HC | 1.1 nM | 6 of 6 | 0 of 18 |
| MISQSFLIGMKAKNSVA | QTSTREE | QQYDRLPLM | En_HC | 1.7 nM | 6 of 6 | 2 of 18 |
| IFSQSVLMGNMTRNSVA | QASTRFN | QQYDRLPLI | En_HC | not detected | 0 of 6 | 1 of 18 |
| KLQMRMLYESRNKNSVA | NASLRES | QQYHRLPLS | GP_Gibbs | 4.1 nM | 6 of 6 | 1 of 18 |
| KMSQEAMMLSRNHNSVA | QASTREQ | QQYHRLPLS | GP_Gibbs | 840 pM | 6 of 6 | 0 of 18 |
| KLQQMYEYESRNPNSVA | HASTREL | QQYHRLPLS | GP_Gibbs | 450 pM | 6 of 6 | 1 of 18 |
| KLYFNVGTMAHNTQNIA | DMERRED | QQYHRLPLS | En_HC | 2.2 nM | 6 of 6 | 0 of 18 |
| IVSQLMLWGYHAKNSIA | EAELRLN | QQYDRLPLI | En_Gen | 2.1 nM | 6 of 6 | 2 of 18 |
| MMSNVTGLGQRTRNNVA | QTSTREP | QQYDRLPLI | En_Gen | 13 nM | 6 of 6 | 1 of 18 |
| KLDQKNRWNGMANYNVA | DSNTRVD | QQYHRLPLI | En_Gibbs | 2.0 nM | 6 of 6 | 1 of 18 |
| KVSMSWLYESRNWNSVA | NASLRES | QDYHRLPLS | GP_Gibbs | 3.5 nM | 6 of 6 | 0 of 18 |
| MISQIYNMGQFAINSVA | QASIRNA | QQYDRLPLM | En_Gen | 6.7 nM | 6 of 6 | 1 of 18 |
| KISMLTLYESVNKNNVA | EMSTRPS | QSYHRLPLS | En_HC | 1.1 nM | 6 of 6 | 1 of 18 |
| KFSQMVLTGSYVKNSVA | QSSTREN | QQYHRLPLS | En_HC | 2.5 nM | 6 of 6 | 0 of 18 |
| HVSSMDMNDGGIKKSVA | DMKITER | QQYMRLPLS | En_Gibbs | 1.2 nM | 6 of 6 | 0 of 18 |
| KLGGVTEYEMMNKNSVA | QMTTRES | QQYHRLPLS | En_HC | 1.6 nM | 6 of 6 | 2 of 18 |
| SISMSMAFLSRNKNSVA | ENSTREA | QQYDRLPLL | En_HC | 23 nM | 6 of 6 | 2 of 18 |
| QLDQAYRVGALWTDSIA | HGSMRVQ | QCYNRLPLS | En_Gibbs | 5.6 nM | 6 of 6 | 0 of 18 |
| KLRQQTLYETRNKNSVA | DASTREE | QQYHRLPLS | GP_HC | 530 pM | 6 of 6 | 1 of 18 |
| MISQLMNMGQFAINSVA | QATIRNS | QQYDRLPLI | En_Gen | 30 nM | 6 of 6 | 1 of 18 |
| LISSVWDYGSRNYNSVA | QTSTREK | QQYDRLPLE | En_HC | 1.8 nM | 6 of 6 | 0 of 18 |
| TIGGTLMYGMRNRSNVA | EVSQRLN | QQYDRLPLE | En_Gen | 99 nM | 5 of 6 | 1 of 18 |
| KLMQLGHYGSRNANNVA | NASQREQ | QQYHRLPLS | GP_Gibbs | 900 pM | 6 of 6 | 0 of 18 |
| MVYQAVMMGGVARNSIA | NAQTRDD | QQYHRLPLI | En_Gen | 11 nM | 6 of 6 | 0 of 18 |
| KMTKAEQSIGSHQQNIA | DSNKITD | QQYYRLPLS | En_Gibbs | 1.1 nM | 6 of 6 | 0 of 18 |
| TLTQVTMVESYSKNSVA | QASTRLE | QDYHRLPLS | En_HC | 3.7 nM | 6 of 6 | 4 of 18 |
| KLENSNLYESRNGNSVA | NASTREH | QQYHRLPLS | GP_Gibbs | 2.3 nM | 6 of 6 | 0 of 18 |
| MLSEVLHMLGVQKNSIA | DLVIRAN | QQYHRLPLF | En_Gen | not detected | 0 of 6 | 0 of 18 |
| MMLSHMLEVQNIQNAVA | EASMVYD | QQYGSLPLS | En_Gibbs | not detected | 0 of 6 | 0 of 18 |
| QFDLHTKQIETIESAIA | ETSVRAA | QSYVRLPLS | En_Gibbs | 48 nM | 1 of 6 | 0 of 18 |
| KLSMTHEMEHVNRNSVA | ELVTRMR | QQYNRLPLS | En_Gen | 9.7 nM | 6 of 6 | 1 of 18 |
| KVEGSHLYESRNGNSVA | NASTREH | QQYHRLPLS | GP_Gibbs | 2.1 nM | 6 of 6 | 0 of 18 |
| WLNMEEQGSDRGKSSVA | DSDARMA | QQYQRLPLS | En_Gibbs | 780 pM | 6 of 6 | 0 of 18 |
| RVQQWSGHSDMTWKSIA | SASLRAQ | QQYARLPLE | En_Gibbs | 11 nM | 6 of 6 | 3 of 18 |
| TISQVMNTLTRHGNNVA | DLTERED | QQYFRLPLS | En_Gen | 4.0 nM | 6 of 6 | 1 of 18 |
| KLDTSWLYGKRNKNSVA | QASLRES | QQYHRLPLS | GP_Gibbs | 9.3 nM | 6 of 6 | 1 of 18 |

Top 7 of the variants detected in all replicates, tightest first:

| CDR-L1 | CDR-L2 | CDR-L3 | group | Kd (apparent) | replicates with signal | empty controls |
|---|---|---|---|---|---|---|
| KLMQGDEYESRNKNSVA | NASKREE | QQYHRLPLS | GP_Gibbs | 410 pM | 6 of 6 | 0 of 18 |
| KLQQMYEYESRNPNSVA | HASTREL | QQYHRLPLS | GP_Gibbs | 450 pM | 6 of 6 | 1 of 18 |
| KLRQQTLYETRNKNSVA | DASTREE | QQYHRLPLS | GP_HC | 530 pM | 6 of 6 | 1 of 18 |
| WLNMEEQGSDRGKSSVA | DSDARMA | QQYQRLPLS | En_Gibbs | 780 pM | 6 of 6 | 0 of 18 |
| KMSQEAMMLSRNHNSVA | QASTREQ | QQYHRLPLS | GP_Gibbs | 840 pM | 6 of 6 | 0 of 18 |
| KLMQLGHYGSRNANNVA | NASQREQ | QQYHRLPLS | GP_Gibbs | 900 pM | 6 of 6 | 0 of 18 |
| KMTKAEQSIGSHQQNIA | DSNKITD | QQYYRLPLS | En_Gibbs | 1.1 nM | 6 of 6 | 0 of 18 |

Background: pairings of all light chain designs with three empty control strains gave a value in 4% of cases (median 430 nM, 5th percentile 38 nM). Values in that range, when seen in few replicates, are hard to tell from nonspecific mating. The control count says in how many pairings with the empty strains this scFv gave a signal.
Values of this round are not directly comparable with the first-round values of the same sequences.
The parent sequence was in this pool as ten entries: three were never detected, three once, and four in most replicates, with averages from 2.2 nM to 240 nM.
The authors' rule: three or more of the six replicates give a measured affinity, fewer mean a poor binder.

The measurements come from Li et al. 2023 (doi:10.1038/s41467-023-39022-2) through the FLAb antibody collection.